Reference: ChEMBL document CHEMBL2331344, “Pharmacological chaperones as therapeutics for lysosomal storage diseases” (J Med Chem, 2013)

Biological target: Lysosomal acid glucosylceramidase (Homo sapiens) (UniProt P04062)
Assay: Induction of wild type beta glucosidase activity in fibroblasts derived from Gaucher disease patient after 4 days relative to control

`CCCCCCCCN[C@@H]1C=C(CO)[C@@H](O)[C@H](O)[C@H]1O` was tested, and the fold change (FC) was 1.5.
